Publication PMC5938747

Test system: Nc1ccn([C@@H]2O[C@H](COP(=O)(O)OP(=O)(O)O)[C@@H](O)[C@H]2O)c(=O)n1
Assay: purified protein
Conditions: 10 mM ATP, MgCl2 4 mM excess, pH 8.0, 25 °C

## Cj1415 (cytidine diphosphoramidate kinase, CDK) (Campylobacter jejuni subsp. jejuni NCTC 11168 = ATCC 700819)
  kcat/Km: 150 ± 30 M⁻¹ s⁻¹
